Assay results published in PMC4389443 (Respiratory Research, 2015).

Sequences of proteins named here, by UniProt entry; tags and fusion partners are left off. Residues count along the entry.
UniProt P19801, 20-751: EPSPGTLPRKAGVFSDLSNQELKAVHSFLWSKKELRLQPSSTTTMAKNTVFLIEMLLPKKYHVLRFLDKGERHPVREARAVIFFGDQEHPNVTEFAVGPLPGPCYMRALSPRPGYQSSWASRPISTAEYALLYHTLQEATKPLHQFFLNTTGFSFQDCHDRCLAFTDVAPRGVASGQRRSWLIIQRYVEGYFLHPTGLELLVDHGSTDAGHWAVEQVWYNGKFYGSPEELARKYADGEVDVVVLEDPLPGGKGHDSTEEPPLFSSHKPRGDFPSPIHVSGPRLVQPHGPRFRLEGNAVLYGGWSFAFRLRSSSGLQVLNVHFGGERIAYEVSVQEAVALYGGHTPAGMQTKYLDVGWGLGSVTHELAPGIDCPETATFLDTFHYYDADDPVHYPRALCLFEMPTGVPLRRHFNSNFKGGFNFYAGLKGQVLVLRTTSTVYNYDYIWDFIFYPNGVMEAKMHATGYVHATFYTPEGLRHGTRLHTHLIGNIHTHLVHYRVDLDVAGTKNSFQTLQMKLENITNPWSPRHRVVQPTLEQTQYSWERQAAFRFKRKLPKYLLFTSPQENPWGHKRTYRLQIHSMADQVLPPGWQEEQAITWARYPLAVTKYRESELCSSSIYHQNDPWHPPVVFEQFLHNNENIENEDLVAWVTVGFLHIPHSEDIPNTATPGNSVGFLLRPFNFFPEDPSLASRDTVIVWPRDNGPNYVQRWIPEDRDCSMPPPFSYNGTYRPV

Target: Recombinant diamine oxidase (AOC1) (Homo sapiens, UniProt P19801)
Test: biochemical

How did the IC50 turn out when `CC(C)(C)NC(=O)c1ccc(OC/C(=C/F)CN)cc1` [PXS-4728A] was run?
The IC50 was 12 µM.
